Bioassay records as filed in PubChem BioAssay.
GIV-Gai inh = inhibitors of GIV peptide binding to Galpha-i3, primary screen, biochemical, fluorescence polarization, FITC-GIV GBA peptide, rat Galphai3 | Guanine nucleotide-binding protein G(i) subunit alpha-3 (Rattus norvegicus), P08753 | 90 min; active compounds read low; scaled: aluminum fluoride 0%, vehicle 100% | 210,000 tested, 0.42% active | AID 1224905, 2016 | percent of control (FP), % (no concentration beside the values);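 active means replicate mean at 85% of control or lower, very high polarization wells dropped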;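 further: wells of about 15 µL received 100 nL stock; the first replicate is given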
HCMV NEC inh = disrupts HCMV UL50-UL53 complex binding. HTRF UL50-UL53 interaction, normalized percent inhibition. AID 1918969. inhibition, % (test concentration not listed). actives 0.15% (n = 190,000); in the data active = inhibition above about 27%, passing the limit was not always enough
Numbers without * were called inactive; x = not tested or not shown. The entries come from a sample that favours hits as a whole.

Amino acid sequences for entries named in this document (tags omitted).
Guanine nucleotide-binding protein G(i) subunit alpha-3 (Rattus norvegicus), P08753, UniProt P08753, whole entry, looked up: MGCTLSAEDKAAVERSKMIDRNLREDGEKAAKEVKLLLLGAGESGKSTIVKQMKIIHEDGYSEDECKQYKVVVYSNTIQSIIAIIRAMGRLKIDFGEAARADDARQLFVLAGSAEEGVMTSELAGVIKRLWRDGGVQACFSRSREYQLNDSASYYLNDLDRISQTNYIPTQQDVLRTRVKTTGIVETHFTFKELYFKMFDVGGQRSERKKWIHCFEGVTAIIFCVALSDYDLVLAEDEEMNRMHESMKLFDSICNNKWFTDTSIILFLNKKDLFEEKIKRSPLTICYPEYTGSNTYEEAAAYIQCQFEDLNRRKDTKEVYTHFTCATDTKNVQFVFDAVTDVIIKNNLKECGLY

(1) CCOC(=O)c1c(/N=C/C2C(=O)NC(=S)NC2=O)sc2c1CCCCC2
(2) O=c1[nH]c(=O)c2nc3c(ccc4nsnc43)nc2[nH]1
(3) Nc1ccc2nc3c(=O)[nH]c(=O)[nH]c3nc2c1
(4) CC1CC(=O)C2=C(C1)OC(N)=C(C#N)C2c1ccccc1 (stereo not given)
(5) N#CC1=C(N)SC(N)=C(C#N)C1c1ccncc1
(6) N#CC1=C(N)SC(N)=C(C#N)C1c1ccccc1
Screen / compound no. | 1 | 2 | 3 | 4 | 5 | 6
GIV-Gai inh | -20.7* | 120.3 | 17.5* | 103.4 | x | -0.3*
HCMV NEC inh | x | x | x | -6.6 | -60.1 | -30.9

Compounds above that contain an NH in an aromatic ring (2):
(2) O=c1[nH]c(=O)c2nc3c(ccc4nsnc43)nc2[nH]1
(3) Nc1ccc2nc3c(=O)[nH]c(=O)[nH]c3nc2c1
Screen / compound no. | 2 | 3
GIV-Gai inh | 120.3 | 17.5*
HCMV NEC inh | x | x

(list continues)
(7) O=C(NCCN1C(=O)S/C(=C\c2ccccc2F)C1=O)C1Cc2ccccc2CN1C(=O)c1ccco1 (stereo not given)
(8) COc1cc(Br)c(/C=C2\C(=O)N(c3ccc(Cl)c(C(=O)O)c3)N=C2C)cc1OC
(9) CCOc1c(OC)cc(/C=C2/C(=O)N(c3ccc(S(N)(=O)=O)cc3)N=C2C)cc1[N+](=O)[O-]
(10) COc1cc(/C=C2\C(=O)N(c3ccc(Cl)c(C(=O)O)c3)N=C2C)cc(OC)c1OC
(11) COc1cc(/C=C2\C(=O)N(c3ccc(S(N)(=O)=O)cc3)N=C2C)cc(Cl)c1OCc1ccccc1
(12) O=C(NCC(F)(F)F)C1CCN(Cc2noc(-c3ccc(F)cc3)n2)CC1
Screen / compound no. | 7 | 8 | 9 | 10 | 11 | 12
GIV-Gai inh | x | 111.7 | 94.5 | 99.0 | 96.4 | 109.4
HCMV NEC inh | -6.4 | x | -9.7 | 63.2* | 60.6* | x

(13) COc1cc(NC(=O)C2CCCN(c3nc4ccccc4nc3C(F)(F)F)C2)cc(OC)c1 (stereo not given)
(14) CCOC(=O)c1nc(NCc2ccc3c(c2)OCO3)c2ccccc2n1
(15) Cc1cc2nc(NCc3ccc4c(c3)OCO4)c(C(=O)OC(C)C)nc2cc1C
(16) CCOC(=O)c1cccc(NC(=O)C2Cc3ccccc3N2C(=O)c2ccccc2)c1 (stereo not given)
(17) CCN(CC)c1ccc2cc(C(=O)Nc3ccccc3)c(=N)oc2c1
(18) CCN(CC)c1ccc2cc(C(=O)Nc3ccc(C)cc3)c(=N)oc2c1
Screen / compound no. | 13 | 14 | 15 | 16 | 17 | 18
GIV-Gai inh | 101.9 | 101.9 | 76.0* | 103.0 | 72.9* | 136.0
HCMV NEC inh | -7.1 | -17.1 | -22.9 | x | x | -18.4

Some values from the results shown:
Value of no. 16 in GIV-Gai inh: 103.0
Value of no. 4 in GIV-Gai inh: 103.4
Value of no. 5 in HCMV NEC inh: -60.1

The list goes on:
(19) CCN(CC)c1ccc2cc(-c3c(O)c4ccccc4[nH]c3=O)c(=O)oc2c1
(20) CCN(CC)c1ccc2cc(-c3nc4ccccc4c(=O)[nH]3)c(=N)oc2c1
(21) COc1cccc(C(=O)NCc2nnc(SCC(=O)N3CCc4ccccc43)n2-c2cc(OC)ccc2OC)c1
(22) O=C(O)c1ccccc1-c1ccccc1C(=O)O
(23) O=C(O)c1ccccc1C1=Nc2ccc(O)cc2Oc2cc(O)ccc21
(24) CCCc1nn2c(=O)cc(CN3CCCc4ccccc43)nc2s1
Screen / compound no. | 19 | 20 | 21 | 22 | 23 | 24
GIV-Gai inh | x | 8.2* | 108.5 | 110.4 | -91.0* | 158.9
HCMV NEC inh | -8.7 | -9.4 | x | 7.7 | -27.3 | x

(25) O=c1cc(CN2CCCc3ccccc32)nc2sccn12
(26) CS(=O)(=O)N1Cc2ccccc2CC1C(=O)OCc1nnc(-c2ccc(Cl)cc2)o1 (stereo not given)
(27) O=c1c(-c2ccc(Cl)cc2)c(C(F)(F)F)oc2c(CN3CCOCC3)c(O)ccc12
(28) COc1cccc(NC(=O)c2cc(=O)n3c(nc4ccccc43)s2)c1
(29) Cc1occc(=O)c1OC(=O)c1ccc(Cl)cc1
(30) Cn1c(=O)c(N2CCCCC2)c2c3c(cccc31)C(=O)c1ccccc1-2
Screen / compound no. | 25 | 26 | 27 | 28 | 29 | 30
GIV-Gai inh | -43.0* | x | 106.3 | 97.4 | x | -32.2*
HCMV NEC inh | -55.3 | -3.8 | -30.5 | -29.6 | -6.4 | x

(31) Cn1c(=O)c(Nc2ccccc2)c2c3c(cccc31)C(=O)c1ccccc1-2
(32) O=c1oc2c(CN3CCCCCC3)c(O)ccc2cc1-c1nc2ccccc2s1
(33) O=c1oc2c(CN3CCN(CCO)CC3)c(O)ccc2cc1-c1nc2ccccc2s1
(34) CN1CCN(Cc2c(O)ccc3cc(-c4nc5ccccc5n4C)c(=O)oc23)CC1
(35) O=c1oc2c(CN3CCOCC3)c(O)ccc2cc1-c1ccccc1
(36) O=c1oc2c(CN3CCCCC3)c(O)ccc2cc1-c1nc2ccccc2s1
Screen / compound no. | 31 | 32 | 33 | 34 | 35 | 36
GIV-Gai inh | 116.4 | -31.8* | -45.3* | 130.5 | 102.0 | -31.8*
HCMV NEC inh | x | -63.8 | -85.6 | -63.1 | x | -46.8

(37) CC1CCN(Cc2c(O)ccc3cc(-c4nc5ccccc5s4)c(=O)oc23)CC1
(38) O=c1oc2ccccc2cc1-c1nc2ccccc2s1
(39) COc1ccc(-c2cc3ccc(O)c(CN4CCN(CCO)CC4)c3oc2=O)cc1OC
(40) Cc1nc2cc(C(=O)NCc3ccccn3)ccc2n1-c1ccc(Br)cc1
(41) NS(=O)(=O)c1ccc(NC(=O)c2ccc(Cl)s2)cc1
(42) Clc1ccc(-c2nnn3c2nc(Cl)c2ccccc23)cc1
Screen / compound no. | 37 | 38 | 39 | 40 | 41 | 42
GIV-Gai inh | -31.8* | 100.7 | 125.5 | 116.3 | x | 99.2
HCMV NEC inh | -45.3 | -10.2 | x | x | -25.1 | x

(43) CCO/C=N/Nc1nc(C(F)(F)F)nc2c1cnn2-c1ccccc1
(44) CC(=O)NS(=O)(=O)c1ccc(NC(=O)Cn2cnc3c2c(=O)n(C)c(=O)n3C)cc1
(45) CC(C)NC(=O)CCc1nc2ccccc2c(=O)[nH]1
(46) COc1cccc2cc(-c3nc4ccccc4s3)c(=O)oc12
(47) CN(C)Cc1c(O)ccc2cc(-c3nc4ccccc4s3)c(=O)oc12
(48) O=C1CCCCC1c1nccc2ccccc12 (stereo not given)
(49) Oc1ccc2ccccc2c1C=Nc1c(F)c(F)c(F)c(F)c1F
Screen / compound no. | 43 | 44 | 45 | 46 | 47 | 48 | 49
GIV-Gai inh | x | 107.4 | x | x | -45.3* | 104.3 | x
HCMV NEC inh | -13.3 | 5.3 | -6.7 | -8.8 | -62.2 | -11.0 | -24.7
